Data reported in PubChem BioAssay AID743279 (National Center for Advancing Translational Sciences (NCATS), 2014).
Only a part is listed here, and it is no random draw. Records with an inconclusive call do not appear. Calls of active or inactive are those of the source. Cut-off read from the data, not from the text of the source: active = activity change below about -50%; inconclusive = mostly about -30% to -49%; inactive = weaker than that.

Assay: qHTS for Inhibitors of Inflammasome Signaling: IL-1-beta AlphaLISA Primary Screen
Details: THP-1 LPS/ATP IL-1B secretion, 16 h, at 57.5 µM, stronger effect = lower value
Text: Inflammasomes are a set of intracellular multi-protein complexes that enable autocatalytic activation of inflammatory caspases and drive the innate immune response to counter harmful agents. […] A qHTS assay, based on AlphaLISA technology, was developed to screen the Molecular Libraries Small Molecule Repository (MLSMR) to look for novel inflammasome inhibitors. The assay detects IL-1B using AlphaLISA anti-IL-1B acceptor and donor beads. A decreased emission signal, indicating reduced IL-1B secretion, is the desired outcome for this assay. NIH Chemical Genomics Center [NCGC] NIH Molecular Libraries Probe Centers Network [MLPCN] MLPCN Grant: MH095513 Assay Provider: Shyam Biswal Ph.D., Johns Hopkins University Immunity. 2012 Jul 27;37(1):85-95. PMID: 22819042 [2] Curr Pharm Des. 2012;18(16):2320-8. PMID: 22390695
Three microliters containing 3000 THP-1 cells were dispensed into the wells of solid, white, tissue culture treated Greiner 1,536-well plates. Library compounds and positive control, Glyburide, were pin-transferred (23 nL) by a Kalypsys pin-tool equipped with a 1,536-pin array, resulting in final compound concentration ranges of 2.5 nM to 57.5 uM. […] The AlphaLISA signal was read by a PerkinElmer EnVision plate reader with an ultrasensitive luminescence detector and 1536 Plate HTS AlphaScreen aperture (excitation of 680nm and emission of 615nm).
% is set by controls: 0 for no effect and ±100 for the full control effect.

Structure (SMILES) | activity change
CCC(=O)N(c1ccccc1)C1(COC)CCN(CCn2nnn(CC)c2=O)CC1 | inactive: 11.3%
CCC(=O)N(c1ccccc1)C1(COC)CCN(CCc2cccs2)CC1 | inactive: -21.6%
